Measured values from ChEMBL document CHEMBL1649318, “Chromosomally encoded blaCMY-2 located on a novel SXT/R391-related integrating conjugative element in a Proteus mirabilis clinical isolate” (2010).

Tested on: Escherichia coli
Details: TUM4672

Question: For GENTAMICIN, which MIC is on record?
Answer: 0.5 µg/mL
